These are literature values, as cited in patent US12522615B2, “Macrocyclic compounds and derivatives as EGFR inhibitors” (Boehringer Ingelheim International GmbH, priority 2019, dated 2026).

The series deals with EGFR M+ NSCLC patients. To be noted: EGFR M+ NSCLC patients treated in 1st line; cited from earlier work.

Each structure is given as a SMILES string.

For `COc1cc2ncnc(Nc3ccc(F)c(Cl)c3)c2cc1OCCCN1CCOCC1` [gefitinib], the objective response rate is 60-85%.
